Laboratory results as given in ChEMBL document CHEMBL5375987, “Structural Fusion of Natural and Synthetic Ligand Features Boosts RXR Agonist Potency” (J Med Chem, 2023).

Chains of the proteins cited; added tags and fusions are not shown. Lines headed by an entry give the natural chain unless they say otherwise; changes in a name come on top.
UniProt P10826, whole entry: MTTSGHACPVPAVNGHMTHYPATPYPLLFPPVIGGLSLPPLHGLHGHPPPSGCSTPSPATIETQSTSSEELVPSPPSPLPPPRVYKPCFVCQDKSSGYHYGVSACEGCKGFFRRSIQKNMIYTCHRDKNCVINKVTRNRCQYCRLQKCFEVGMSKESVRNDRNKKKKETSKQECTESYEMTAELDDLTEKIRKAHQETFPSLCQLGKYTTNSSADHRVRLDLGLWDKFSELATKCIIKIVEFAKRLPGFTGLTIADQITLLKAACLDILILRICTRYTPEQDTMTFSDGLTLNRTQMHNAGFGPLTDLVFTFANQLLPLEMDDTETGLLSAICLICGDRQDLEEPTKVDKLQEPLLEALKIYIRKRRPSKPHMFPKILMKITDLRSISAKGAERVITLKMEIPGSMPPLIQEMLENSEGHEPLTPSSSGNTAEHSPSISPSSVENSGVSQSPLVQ
UniProt Q92570: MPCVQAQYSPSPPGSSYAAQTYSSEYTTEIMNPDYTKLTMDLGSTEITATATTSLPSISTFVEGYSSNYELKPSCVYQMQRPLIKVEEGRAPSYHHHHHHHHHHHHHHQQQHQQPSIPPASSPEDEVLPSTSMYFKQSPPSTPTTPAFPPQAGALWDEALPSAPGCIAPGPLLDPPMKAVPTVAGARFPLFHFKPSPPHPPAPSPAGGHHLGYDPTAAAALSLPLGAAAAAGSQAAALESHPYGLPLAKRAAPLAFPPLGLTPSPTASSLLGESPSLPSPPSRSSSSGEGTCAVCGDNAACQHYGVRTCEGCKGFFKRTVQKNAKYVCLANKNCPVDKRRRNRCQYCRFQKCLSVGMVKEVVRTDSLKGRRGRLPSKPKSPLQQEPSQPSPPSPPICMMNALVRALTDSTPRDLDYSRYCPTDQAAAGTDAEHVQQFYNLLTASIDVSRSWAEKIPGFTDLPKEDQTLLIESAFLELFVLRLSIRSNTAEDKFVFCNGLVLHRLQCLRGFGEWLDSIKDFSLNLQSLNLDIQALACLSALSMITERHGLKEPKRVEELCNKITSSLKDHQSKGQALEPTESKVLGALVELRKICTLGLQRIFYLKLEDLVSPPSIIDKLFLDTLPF
UniProt O00482, whole entry: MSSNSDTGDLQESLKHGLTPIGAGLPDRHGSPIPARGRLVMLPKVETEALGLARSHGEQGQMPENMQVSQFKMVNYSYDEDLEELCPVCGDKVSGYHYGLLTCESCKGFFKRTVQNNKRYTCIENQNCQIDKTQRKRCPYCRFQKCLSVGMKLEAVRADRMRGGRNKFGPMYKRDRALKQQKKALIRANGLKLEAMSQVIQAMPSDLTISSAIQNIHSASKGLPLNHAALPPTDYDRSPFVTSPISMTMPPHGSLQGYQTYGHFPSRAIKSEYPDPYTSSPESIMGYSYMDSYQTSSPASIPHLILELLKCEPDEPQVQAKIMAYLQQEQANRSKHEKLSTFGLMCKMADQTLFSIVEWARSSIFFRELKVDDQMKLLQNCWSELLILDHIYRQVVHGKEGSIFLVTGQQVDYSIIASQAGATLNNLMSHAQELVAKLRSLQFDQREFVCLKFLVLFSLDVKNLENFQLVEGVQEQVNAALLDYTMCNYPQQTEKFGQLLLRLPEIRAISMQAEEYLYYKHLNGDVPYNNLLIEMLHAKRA

How the values were obtained:
[1] = target: Retinoic acid receptor beta (Homo sapiens) (UniProt P10826); test: Antagonist activity at NR1B2 (unknown origin) at 1 uM
[2] = target: Nuclear receptor subfamily 4 group A member 3 (Homo sapiens) (UniProt Q92570); test: Inverse agonist activity at NR4A3 (unknown origin) at 1 uM
[3] = target: T1, Nuclear receptor subfamily 1 group D member 1 (Homo sapiens) (UniProt P20393); test: Inverse agonist activity at NR1D1 (unknown origin) at 1 uM
T1 sequence (whole entry): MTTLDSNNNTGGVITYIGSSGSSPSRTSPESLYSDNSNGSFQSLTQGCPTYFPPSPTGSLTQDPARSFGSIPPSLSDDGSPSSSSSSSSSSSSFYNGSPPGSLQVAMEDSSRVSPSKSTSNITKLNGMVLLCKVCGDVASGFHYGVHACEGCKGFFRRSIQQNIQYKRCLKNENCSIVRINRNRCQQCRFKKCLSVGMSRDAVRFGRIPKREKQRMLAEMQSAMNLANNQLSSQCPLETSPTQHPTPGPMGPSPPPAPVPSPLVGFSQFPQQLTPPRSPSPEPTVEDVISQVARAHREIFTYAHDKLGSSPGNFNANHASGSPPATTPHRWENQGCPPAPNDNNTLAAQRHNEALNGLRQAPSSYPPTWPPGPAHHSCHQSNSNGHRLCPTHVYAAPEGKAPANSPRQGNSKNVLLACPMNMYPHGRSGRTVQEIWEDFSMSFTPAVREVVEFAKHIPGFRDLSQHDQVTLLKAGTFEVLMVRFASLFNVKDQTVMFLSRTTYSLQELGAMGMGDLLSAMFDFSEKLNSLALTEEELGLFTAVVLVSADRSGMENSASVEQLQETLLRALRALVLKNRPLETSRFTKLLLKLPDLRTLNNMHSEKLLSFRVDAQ

[4] = target: T2, Nuclear receptor ROR-beta (Homo sapiens) (UniProt Q92753); test: Antagonist activity at NR1F2 (unknown origin) at 1 uM
T2 sequence (whole entry): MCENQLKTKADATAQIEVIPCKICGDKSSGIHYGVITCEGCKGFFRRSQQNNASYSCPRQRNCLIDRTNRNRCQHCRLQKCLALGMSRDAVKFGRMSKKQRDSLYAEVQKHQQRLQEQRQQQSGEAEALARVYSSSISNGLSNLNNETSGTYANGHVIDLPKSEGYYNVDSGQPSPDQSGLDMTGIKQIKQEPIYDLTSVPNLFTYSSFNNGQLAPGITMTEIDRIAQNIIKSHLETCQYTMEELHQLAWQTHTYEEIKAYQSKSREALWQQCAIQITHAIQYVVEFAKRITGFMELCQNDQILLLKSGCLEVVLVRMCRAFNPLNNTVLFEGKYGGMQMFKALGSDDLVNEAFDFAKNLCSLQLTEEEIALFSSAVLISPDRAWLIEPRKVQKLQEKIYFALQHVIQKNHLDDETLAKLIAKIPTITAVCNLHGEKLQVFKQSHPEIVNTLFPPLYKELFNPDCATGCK

[5] = target: T3, Nuclear receptor subfamily 1 group D member 2 (Homo sapiens) (UniProt Q14995); test: Inverse agonist activity at NR1D2 (unknown origin) at 1 uM
T3 sequence (whole entry): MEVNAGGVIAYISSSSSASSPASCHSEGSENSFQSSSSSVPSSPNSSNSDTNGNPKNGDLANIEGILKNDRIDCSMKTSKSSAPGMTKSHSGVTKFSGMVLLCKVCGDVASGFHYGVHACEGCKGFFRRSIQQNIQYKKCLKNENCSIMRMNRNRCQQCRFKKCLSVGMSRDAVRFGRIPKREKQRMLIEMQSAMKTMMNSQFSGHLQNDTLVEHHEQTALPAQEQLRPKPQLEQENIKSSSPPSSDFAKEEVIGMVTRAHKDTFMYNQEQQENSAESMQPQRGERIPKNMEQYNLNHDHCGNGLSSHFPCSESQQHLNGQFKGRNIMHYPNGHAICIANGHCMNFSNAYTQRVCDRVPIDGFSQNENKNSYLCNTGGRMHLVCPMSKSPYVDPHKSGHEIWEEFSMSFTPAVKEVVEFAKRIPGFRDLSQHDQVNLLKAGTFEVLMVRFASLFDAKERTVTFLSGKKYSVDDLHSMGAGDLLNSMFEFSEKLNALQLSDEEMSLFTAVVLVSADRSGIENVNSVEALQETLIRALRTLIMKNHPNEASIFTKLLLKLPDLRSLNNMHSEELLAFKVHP

[6] = target: T4, Nuclear receptor subfamily 2 group C member 1 (Homo sapiens) (UniProt P13056); test: Antagonist activity at NR2C1 (unknown origin) at 1 uM
T4 sequence (whole entry): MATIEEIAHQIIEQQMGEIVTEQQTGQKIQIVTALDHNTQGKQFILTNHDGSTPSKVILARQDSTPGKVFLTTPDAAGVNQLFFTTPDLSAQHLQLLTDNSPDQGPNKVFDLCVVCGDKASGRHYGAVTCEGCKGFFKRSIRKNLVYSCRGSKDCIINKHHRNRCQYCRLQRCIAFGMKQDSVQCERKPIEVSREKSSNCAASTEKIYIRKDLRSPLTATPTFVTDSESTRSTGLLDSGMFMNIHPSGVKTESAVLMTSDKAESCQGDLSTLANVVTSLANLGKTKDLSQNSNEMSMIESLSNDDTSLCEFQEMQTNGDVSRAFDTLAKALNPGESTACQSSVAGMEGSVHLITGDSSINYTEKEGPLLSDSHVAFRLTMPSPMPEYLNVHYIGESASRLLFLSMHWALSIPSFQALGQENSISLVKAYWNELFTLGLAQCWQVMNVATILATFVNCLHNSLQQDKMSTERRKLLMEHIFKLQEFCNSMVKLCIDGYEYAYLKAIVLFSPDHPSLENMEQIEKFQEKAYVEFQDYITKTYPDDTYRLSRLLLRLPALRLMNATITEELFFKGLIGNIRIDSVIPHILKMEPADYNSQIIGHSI

[7] = target: T5, Thyroid hormone receptor beta (Homo sapiens) (UniProt P10828); test: Agonist activity at NR1A2 (unknown origin) at 1 uM
T5 sequence (whole entry): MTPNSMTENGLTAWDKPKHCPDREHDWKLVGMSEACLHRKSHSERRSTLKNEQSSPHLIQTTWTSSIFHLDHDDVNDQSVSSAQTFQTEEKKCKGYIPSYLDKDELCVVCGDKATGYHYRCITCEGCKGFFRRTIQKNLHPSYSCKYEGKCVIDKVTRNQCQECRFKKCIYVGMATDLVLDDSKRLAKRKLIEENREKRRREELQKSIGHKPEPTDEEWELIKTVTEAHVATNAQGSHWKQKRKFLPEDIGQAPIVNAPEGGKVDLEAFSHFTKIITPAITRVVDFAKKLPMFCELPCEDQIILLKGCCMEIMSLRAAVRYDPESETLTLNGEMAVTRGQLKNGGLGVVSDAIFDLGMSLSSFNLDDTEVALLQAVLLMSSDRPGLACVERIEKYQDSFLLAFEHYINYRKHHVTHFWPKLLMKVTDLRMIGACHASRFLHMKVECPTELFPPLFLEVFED

[8] = target: Nuclear receptor subfamily 5 group A member 2 (Homo sapiens) (UniProt O00482); test: Agonist activity at NR5A2 (unknown origin) at 1 uM

Activity [1]: inactive
Activity [2]: inactive
Activity [3]: inactive
Activity [4]: inactive
Activity [5]: inactive
Activity [6]: inactive
Activity [7]: inactive
Activity [8]: inactive
SMILES: O=C(O)[C@@H]1C[C@H]1c1nc(-c2ccccc2)c(-c2cc(C(F)(F)F)cc(C(F)(F)F)c2)o1 (racemic)

Calls of active or inactive are those of the source. No cut-off for these calls is given here.
